We go through 1 molecule from ChEMBL document CHEMBL1136971, “Nascent structure-activity relationship study of a diastereomeric series of kappa opioid receptor antagonists derived from CJ-15,208” (Bioorg Med Chem Lett, 2009).

The chains behind the UniProt entries cited, without tags or fusion partners.
UniProt P35372, whole entry: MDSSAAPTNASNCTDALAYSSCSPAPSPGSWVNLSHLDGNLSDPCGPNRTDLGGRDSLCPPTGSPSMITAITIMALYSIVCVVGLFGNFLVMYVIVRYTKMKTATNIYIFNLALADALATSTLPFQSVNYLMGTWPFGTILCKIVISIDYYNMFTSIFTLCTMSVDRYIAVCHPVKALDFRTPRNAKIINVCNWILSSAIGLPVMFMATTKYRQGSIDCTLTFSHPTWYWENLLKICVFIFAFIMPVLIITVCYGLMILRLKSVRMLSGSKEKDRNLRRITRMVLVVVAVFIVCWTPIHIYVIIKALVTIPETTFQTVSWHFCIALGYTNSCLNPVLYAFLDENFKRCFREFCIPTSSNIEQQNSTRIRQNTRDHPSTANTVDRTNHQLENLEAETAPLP

Structures are written as SMILES.

The species named for test [1] is Homo sapiens. In words: Ratio of Ki for human cloned mu opioid receptor to Ki for human cloned kappa opioid receptor.
The target in test [2] is Mu-type opioid receptor (Homo sapiens, UniProt P35372). In words: Displacement of [3H]diprenorphine from human cloned mu receptor by cell based assay. Background: In a radioligand displacement assay an active substance lowers the binding of a labelled ligand.

`O=C1N[C@H](Cc2c[nH]c3ccccc23)C(=O)N[C@@H](Cc2ccc(O)cc2)C(=O)N2CCC[C@@H]2C(=O)N[C@H]1Cc1ccccc1`: the Ratio Ki in test [1] was 3. For the same molecule, the Ki (commonly a dissociation constant, usually derived from enzyme kinetics or from competition with a known ligand) in test [2] was 670 nM.
